Laboratory results taken from ChEMBL document CHEMBL1921678, “The discovery of novel cyclohexylamide CCR2 antagonists” (Bioorg Med Chem Lett, 2011).

Chains of the proteins cited; added tags and fusions are not shown. Lines headed by an entry give the natural chain unless they say otherwise; changes in a name come on top.
UniProt P41597: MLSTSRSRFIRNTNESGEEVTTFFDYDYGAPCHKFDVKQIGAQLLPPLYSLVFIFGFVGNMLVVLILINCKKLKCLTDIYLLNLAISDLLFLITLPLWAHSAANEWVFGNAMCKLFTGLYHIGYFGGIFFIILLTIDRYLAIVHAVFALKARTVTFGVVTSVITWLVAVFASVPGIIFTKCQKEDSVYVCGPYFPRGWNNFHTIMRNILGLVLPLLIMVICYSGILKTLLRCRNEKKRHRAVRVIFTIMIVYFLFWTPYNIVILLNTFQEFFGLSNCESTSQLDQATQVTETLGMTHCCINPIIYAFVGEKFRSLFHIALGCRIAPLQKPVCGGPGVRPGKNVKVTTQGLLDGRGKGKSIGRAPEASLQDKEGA

What was measured:
[1] = molecular target: T1, C-C chemokine receptor type 2 (Homo sapiens, UniProt P41597); test: Antagonist activity at CCR2 by calcium mobilization assay; type: functional
[2] = molecular target: T1, C-C chemokine receptor type 2; test: Antagonist activity at human CCR2; type: functional

IC50 [1]	IC50 [2]	Compound
6 nM	–	NC(=O)C(NC1CCC(c2c[nH]c3ccccc23)CC1)C1CCN(C(=O)/C=C/c2cc(F)cc(F)c2)CC1 (racemic)
–	740 nM	NC(=O)C(NC1CCC(c2c[nH]c3ccccc23)CC1)C1CCN(C(=O)/C=C\c2cc(F)cc(F)c2)CC1 (cis isomer)
–	16 nM	NC(=O)C(NC1CCC(c2c[nH]c3ccccc23)CC1)C1CCN(C(=O)/C=C/c2cc(F)c(F)c(F)c2)CC1 (stereo not drawn)
